Laboratory results as given in ChEMBL document CHEMBL4813985, “Lead optimization generates selenium-containing miconazole CYP51 inhibitors with improved pharmacological profile for the treatment of fungal infections” (Eur J Med Chem, 2021).

Tested on: Candida albicans
Assay: Ratio of MFC for Candida albicans CPCC400616 incubated for 48 hrs followed by culturing on PDA plate for 24 hrs to MIC for Candida albicans CPCC400616 measured after 24 hrs
Type: functional

Molecule `Fc1ccc([Se]C(Cn2ccnc2)c2ccc(F)cc2F)cc1` (configuration not stated) has a Ratio of 4.

Work on `CCc1ccccc1[Se]C(Cn1ccnc1)c1ccc(F)cc1F` (configuration not stated) yielded a Ratio of 4.
